This is a selection; strong and weak results do not stand in their true shares. Activity calls are given as the source filed them. Rule as the data show it: active = growth inhibition above about 70%; inactive = the rest.
Assay: NCI Yeast Anticancer Drug Screen. Data for the sgs1 mgt1 strain (AID 161);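 also: 0% = growth of cultures given vehicle only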
Conditions: S. cerevisiae sgs1 mgt1 strain, at 50.0 µM, stronger effect = higher value

Row | Compound | growth inhibition
1 | CN(CCCl)CC(Cl)c1cccc(C(F)(F)F)c1 (centres undefined) | inactive: 9.5%
2 | O=c1[nH]c2ccccc2n1C1CCN(Cc2ccccc2)CC1 | inactive: 0.75%
3 | Nc1cc([As](I)I)ccc1O | inactive: 21.8%
4 | O=NN(CCSCCCl)C(=O)NC1CCCCC1 | inactive: 36.2%
5 | CCC(=O)N(c1ccccc1)C1CCNCC1 | inactive: -19.9%
6 | COc1ccc([N+](=O)[O-])cc1CN(CCBr)CCBr | inactive: 7.2%
7 | O=C1CCN(CCc2ccccc2)CC1 | inactive: 0.7%
8 | O=C(O)C1(Nc2ccccc2)CCN(Cc2ccccc2)CC1 | inactive: -25.4%
9 | CCCCCCCCC(=O)OCC(COP(=O)(Oc1ccccc1)N(CCCl)CCCl)OC(=O)CCCCCCCC (centres undefined) | inactive: -18.6%
10 | NS(=O)(=O)c1ccc(N(CCCl)CCCl)cc1 | inactive: 17.4%
11 | Cn1c(S(C)=O)cnc1COC(=O)N(CCCl)CCCl (centres undefined) | inactive: -36.8%
12 | CC1(C)OCC(COP(N)(=O)N(CCCl)CCCl)O1 (centres undefined) | active: 94.5%
13 | O=C(OC1CN2CCC1CC2)C1(c2ccccc2)COc2ccccc21 (centres undefined) | inactive: 18.8%
14 | CCCOP(O)OCCC | inactive: 6.9%
15 | Cc1ccc(N(CCCl)CCCl)cc1 | inactive: -13.7%
16 | ClCCN(CCCl)c1ccccc1 | inactive: 7.9%

Assay: NCI Yeast Anticancer Drug Screen. Data for the cln2 rad14 strain (AID 165);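 also: 0% = growth equal to vehicle treated cultures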
Conditions: S. cerevisiae cln2 rad14 strain, at 50.0 µM, stronger effect = higher value

Row | Compound | growth inhibition
17 | c1ccc(CN2CCC(Nc3ccccc3)CC2)cc1 | inactive: 51.5%
18 | CC(Cl)CN(CC(C)Cl)c1ccc2ccccc2c1 (centres undefined) | inactive: -13.4%
19 | Cc1cc(C)c2nc(CN(CCCl)CCCl)[nH]c2c1 | inactive: 26.6%
20 | Cc1ccc(NC2(C(N)=O)CCNCC2)cc1 | inactive: 9.35%
21 | Cc1ccc(N(CCBr)CCBr)cc1 | inactive: 11.1%
22 | COc1ccccc1N(CCCl)CCCl | inactive: -9.05%
23 | O=C(O)CCOc1ccccc1N(CCCl)CCCl | inactive: 7.05%
24 | O=C1CCNCC1 | inactive: 20.6%
25 | Nc1c(Cl)cc(CN(CCCl)CCCl)cc1Cl | inactive: -2.3%
26 | CC(C)NP(=O)(F)NC(C)C | inactive: 39%
27 | Nc1cc([As](Cl)Cl)ccc1O | inactive: -86.5%
28 | O=C(O)CN(CCCl)CCCl | inactive: -22.4%
29 | Fc1cccc(CBr)c1 | inactive: 14.5%
30 | ClCCSC(SCCCl)=C(SCCCl)SCCCl | inactive: -15.2%
31 | Cc1cc(N(CCCl)CCCl)ccc1C=C(C#N)C#N | inactive: -50%
32 | Cc1ccc(NC2(C#N)CCN(Cc3ccccc3)CC2)cc1 | inactive: -10.6%
33 | CCOc1ccc(N(CCCl)CCCl)cc1 | inactive: -0.8%
34 | COc1cccc(N(CCCl)CCCl)c1 | inactive: 8.15%
35 | O=P(Cl)(Cl)N(CCF)CCCl | inactive: -17.1%

Row | Compound | growth inhibition
36 | O=C1NC(=NC2CCCCC2)C2(CCN(CCc3ccccc3)CC2)N1c1ccccc1 | inactive: 11.4%
37 | COC(=O)c1ccc(C)c(N(CCCl)CCCl)c1 | inactive: 17.2%
38 | CCC1C(OC(=O)CC(O)(c2ccccc2)c2ccccc2)C2CCN1CC2 (centres undefined) | inactive: -3.7%
39 | CN(CCCl)CC(Cl)c1cccc(C(F)(F)F)c1 (centres undefined) | inactive: -26.2%
40 | O=c1[nH]c2ccccc2n1C1CCN(Cc2ccccc2)CC1 | inactive: 14.7%
41 | Nc1cc([As](I)I)ccc1O | inactive: 26.8%
42 | O=NN(CCSCCCl)C(=O)NC1CCCCC1 | inactive: -32.2%
43 | CCC(=O)N(c1ccccc1)C1CCNCC1 | inactive: -1.05%
44 | COc1ccc([N+](=O)[O-])cc1CN(CCBr)CCBr | inactive: -36%
45 | O=C1CCN(CCc2ccccc2)CC1 | inactive: 14.5%
46 | O=C(O)C1(Nc2ccccc2)CCN(Cc2ccccc2)CC1 | inactive: -5.65%
47 | CCCCCCCCC(=O)OCC(COP(=O)(Oc1ccccc1)N(CCCl)CCCl)OC(=O)CCCCCCCC (centres undefined) | inactive: -4.25%
48 | NS(=O)(=O)c1ccc(N(CCCl)CCCl)cc1 | inactive: 13.3%
49 | Cn1c(S(C)=O)cnc1COC(=O)N(CCCl)CCCl (centres undefined) | inactive: -10.8%
50 | CC1(C)OCC(COP(N)(=O)N(CCCl)CCCl)O1 (centres undefined) | active: 83.2%
51 | O=C(OC1CN2CCC1CC2)C1(c2ccccc2)COc2ccccc21 (centres undefined) | inactive: 12.8%
52 | CCCOP(O)OCCC | inactive: -13.3%
53 | Cc1ccc(N(CCCl)CCCl)cc1 | inactive: -15.9%
54 | ClCCN(CCCl)c1ccccc1 | inactive: -8.1%

— PubChem BioAssay (NCI)
